Data reported in ChEMBL document CHEMBL4007391, “Tackling Fungal Resistance by Biofilm Inhibitors” (J Med Chem, 2017).

System: HepG2
Assay: Cytotoxicity against human HepG2 assessed as reduction in cell viability after 24 hrs by CellTiter-Glo luminescent assay
Assay type: cell-based
Conditions: hepg2, 24 h

CCN(CCO)CCO.Oc1c(Cl)c(Cl)c(Cl)c(Cl)c1Cl gave a CC50 of 127 µM.
